Data from patent US8163479B2, “Specific substrates for O6-alkylguanine-DNA alkyltransferase” (Ecole Polytechnique Federale de Lausanne, priority 2004, dated 2012).

Tests used:
[1] = target: T1, AGT (Gly160Trp)-NLS3 fusion protein in the nucleus of CHO cells (Homo sapiens, UniProt P16455, G160W); assay: Intracellular competition of two AGT mutants with two substrates in CHO cells; format: cell-based; conditions: 5 μM BG-AcFL 20 min after 5 μM CPTG 10 min
T1 construct: expressed in transfected cells; host or cells: CHO cells, transient expression
T1 sequence (P16455 1-207 G160W): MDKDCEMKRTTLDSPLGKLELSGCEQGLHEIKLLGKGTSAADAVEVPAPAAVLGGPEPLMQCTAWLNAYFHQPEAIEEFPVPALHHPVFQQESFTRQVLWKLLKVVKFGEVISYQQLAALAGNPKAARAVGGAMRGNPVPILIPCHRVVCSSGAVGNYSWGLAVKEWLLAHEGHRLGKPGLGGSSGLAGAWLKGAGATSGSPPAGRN
From the text: (§1) The mutant AGTM (Example 47) is amplified with the suitable primers and cloned between the NheI and BglII sites of the vector pEGFP-Nuc. The yeast β-galactosidase gene is likewise amplified and subcloned into this vector via BglII/BamHI to result in a vector with an AGT-β-Gal fusion gene. The wild type hAGT gene is amplified and cloned via NheI/BglII into pEGFP-Nuc to result in an AGT-NLS3 fusion gene coding for the mutation Gly160Trp. After transient expression of both AGT mutants in parallel in CHO cells, the cells are incubated with 5 μM CPTG (18) for 10 min and subsequently with 5 μM of substance 4 of Juillerat et al., Chem Biol 10:313-317, 2003 (O^6-(4-(diacetyl-fluoresceine-carbonylaminomethyl)-benzyl)-guanine (BG-AcFL), for 20 min. The cells are washed and imaged according to standard procedures.

[2] = target: T2, AGTM-β-galactosidase fusion protein in CHO cells (Homo sapiens, UniProt P16455, A127T/C150N/C62A/G131K/G132T/K125A/M134L/N157G/Q115S/Q116H/R128A/R135S/S151I/S152N/S159E); assay: as above; format: cell-based; conditions: 5 μM BG-AcFL 20 min after 5 μM CPTG 10 min
T2 construct: a truncation after codon 182 into the mutant AGT gene; expressed in transfected cells; host or cells: CHO cells, transient expression
T2 sequence (P16455 1-182 C62A/Q115S/Q116H/K125A/A127T/R128A/G131K/G132T/M134L/R135S/C150N/S151I/S152N/N157G/S159E): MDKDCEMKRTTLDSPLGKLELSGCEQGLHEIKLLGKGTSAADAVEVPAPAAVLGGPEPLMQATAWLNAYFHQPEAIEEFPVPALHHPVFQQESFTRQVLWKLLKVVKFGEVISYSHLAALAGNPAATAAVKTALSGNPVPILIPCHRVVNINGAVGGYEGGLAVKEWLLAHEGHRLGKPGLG
From the text: as §1

AGTM (mutant AGT) = target: T3, AGTM (mutant AGT) (Homo sapiens, UniProt P16455, A127T/C150N/C62A/G131K/G132T/K125A/M134L/N157G/Q115S/Q116H/R128A/R135S/S151I/S152N/S159E); assay: Reaction rate of AGT mutant with substrate, BGBT capture and Western blot; format: biochemical; conditions: AGTM 1 μM, substrate 10 μM, 24° C., pH 7.3
T3 construct: a truncation after codon 182 into the mutant AGT gene; 6xHis
T3 sequence (P16455 1-182 C62A/Q115S/Q116H/K125A/A127T/R128A/G131K/G132T/M134L/R135S/C150N/S151I/S152N/N157G/S159E): T2 sequence (P16455 1-182 C62A/Q115S/Q116H/K125A/A127T/R128A/G131K/G132T/M134L/R135S/C150N/S151I/S152N/N157G/S159E)
From the text: Proteins are then denatured with SDS and heat. Samples are subjected to SDS-PAGE and Western blot analysis. The intensity of the corresponding bands is detected by chemiluminescence stain.
A second AGT mutant (“AGTM”) containing the mutations Cys62Ala, Gln115Ser, Gln116His, Lys125Ala, Ala127Thr, Arg128Ala, Gly131Lys, Gly132Thr, Met134Leu, Arg135Ser, Cys150Asn, Ser15111e, Ser152Asn, Asn157Gly, Ser159G1u, and truncation at 182 is derived from the mentioned above AGT mutant by subsequent introduction of further mutations and a truncation after codon 182 into the mutant AGT gene. […] The GST-fusion protein is expressed and purified as well.
AGTM (1 μM final concentration) is incubated with N^9-cyclopentyl-O^6-(4-bromothiophen-2-yl)-guanine (18, CPTG) (10 μM in 1% DMSO final concentration) in reaction buffer (50 mM HEPES, 1 mM DTT, […] BSA, pH 7.3) at 24° C. […] The reaction is quenched by addition of SDS-Laemmli buffer and heating for 2 min at 95° C. Samples are run on a 12% acrylamide gel and analysed by Western blotting.

wild type hAGT = target: T4, wild type hAGT (Homo sapiens, UniProt P16455); conditions: known values; cited from earlier work
T4 sequence (P16455 1-207): T1 sequence (P16455 1-207 G160W) with W160G

[3] = target: T5, AGT26-CaaX fusion protein in CHO cells deficient in endogenous wildtype AGT (Homo sapiens, UniProt P16455, A127T/C150S/C62A/G131K/G132T/K125A/M134L/N157G/R128A/R135S/S159E); format: cell-based
T5 construct: and truncation at 182 is also prepared according to the same method; expressed in transfected cells
T5 sequence (P16455 1-182 C62A/K125A/A127T/R128A/G131K/G132T/M134L/R135S/C150S/N157G/S159E): T2 sequence (P16455 1-182 C62A/Q115S/Q116H/K125A/A127T/R128A/G131K/G132T/M134L/R135S/C150N/S151I/S152N/N157G/S159E) with S115Q, H116Q, N150S, I151S, N152S
Protocol: A fourth AGT mutant (“AGT26”) related to AGTM and containing the mutations Cys62Ala, Lys125Ala, Ala127Thr, Arg128Ala, Gly131Lys, Gly132Thr, Met134Leu, Arg135Ser, Cys150Ser, Asn157Gly, Ser159G1u, and truncation at 182 is also prepared according to the same method.
A vector for a fusion of AGT26 and the CaaX-farnesylation signal is transfected into CHO cells deficient in endogenous wildtype AGT. Stable transfectants are selected under geneticine treatment. For that purpose the gene of AGT26 is cloned into pCMV-Script (Stratagene) followed on its C-terminus by the CaaX-box sequence encoded in the pECP-F (Clontech). The final protein sequence (position 690-1271) yields a single polypeptide with 194 amino acids. In the stably transfected cell line this polypeptide leads to an AGT fusion protein localized to the inner surface of the cell membrane. […] All imaging is done with an inverted Zeiss fluorescence microscope Axiovert 40 CFL with filter sets for tetramethylrhodamine and for fluorescein.

**Q.** For “O^6-(4-(diacetyl-fluoresceine-carbonylaminomethyl)-benzyl)-guanine [BG-AcFL, reference compound]”, which “fluorescence labeling of the AGT fusion protein in the nucleus” value [1] is on record?
**A.** No significant labeling

**Q.** What about the “fluorescence labeling of cytoplasmically localized AGT-β-galactosidase fusion protein” value [2] of the same substance?
**A.** selectively fluorescence labeled

**Q.** For “biotinylated O^6-benzylguanine [BGBT, reference compound]”, which “second order rate constant k2” value (AGTM (mutant AGT)) is on record?
**A.** ~3,000 s^−1 M^−1

**Q.** And the “rate constant of the reaction with wild type hAGT” value (wild type hAGT)?
**A.** 400 s^−1M^−1

**Q.** What does the source list for “O^6-(4-(ATT0488-amidomethyl)-benzyl)-guanine [BG-Atto488]”?
**A.** cell membrane permeability [3]: only very low cell membrane permeability; labeling of cells (fluorescence microscopy) ([3]; 5 μM, 30 min, CHO cells with AGT26-CaaX): no significant labeling of the cells

Positions count from the first letter of the chain named.
